Laboratory results taken from patent US20110038920A1, “WOUND HEALING COMPOSITIONS AND TREATMENTS” (priority 2008, published 2011).

Test system: OPN expression in Swiss 3T3 fibroblasts
Test: Induction of OPN expression in fibroblasts by growth factors/cytokines (Western blot)
Type: cell-based
Conditions: 8 h; PDGF-BB 20, EGF 100, TGFβ1 10, TGFβ3 10, IL-6 50, TNFα 10 ng/ml

Question: TNF-α: cytokine, BioSource was tested. Which “ability to upregulate OPN expression in Swiss 3T3s” value did it give?
Answer: not
